Sequences of proteins named here, by UniProt entry; tags and fusion partners are left off. A change or cut given only in a name is not applied to a line headed by its entry.
UniProt P52333: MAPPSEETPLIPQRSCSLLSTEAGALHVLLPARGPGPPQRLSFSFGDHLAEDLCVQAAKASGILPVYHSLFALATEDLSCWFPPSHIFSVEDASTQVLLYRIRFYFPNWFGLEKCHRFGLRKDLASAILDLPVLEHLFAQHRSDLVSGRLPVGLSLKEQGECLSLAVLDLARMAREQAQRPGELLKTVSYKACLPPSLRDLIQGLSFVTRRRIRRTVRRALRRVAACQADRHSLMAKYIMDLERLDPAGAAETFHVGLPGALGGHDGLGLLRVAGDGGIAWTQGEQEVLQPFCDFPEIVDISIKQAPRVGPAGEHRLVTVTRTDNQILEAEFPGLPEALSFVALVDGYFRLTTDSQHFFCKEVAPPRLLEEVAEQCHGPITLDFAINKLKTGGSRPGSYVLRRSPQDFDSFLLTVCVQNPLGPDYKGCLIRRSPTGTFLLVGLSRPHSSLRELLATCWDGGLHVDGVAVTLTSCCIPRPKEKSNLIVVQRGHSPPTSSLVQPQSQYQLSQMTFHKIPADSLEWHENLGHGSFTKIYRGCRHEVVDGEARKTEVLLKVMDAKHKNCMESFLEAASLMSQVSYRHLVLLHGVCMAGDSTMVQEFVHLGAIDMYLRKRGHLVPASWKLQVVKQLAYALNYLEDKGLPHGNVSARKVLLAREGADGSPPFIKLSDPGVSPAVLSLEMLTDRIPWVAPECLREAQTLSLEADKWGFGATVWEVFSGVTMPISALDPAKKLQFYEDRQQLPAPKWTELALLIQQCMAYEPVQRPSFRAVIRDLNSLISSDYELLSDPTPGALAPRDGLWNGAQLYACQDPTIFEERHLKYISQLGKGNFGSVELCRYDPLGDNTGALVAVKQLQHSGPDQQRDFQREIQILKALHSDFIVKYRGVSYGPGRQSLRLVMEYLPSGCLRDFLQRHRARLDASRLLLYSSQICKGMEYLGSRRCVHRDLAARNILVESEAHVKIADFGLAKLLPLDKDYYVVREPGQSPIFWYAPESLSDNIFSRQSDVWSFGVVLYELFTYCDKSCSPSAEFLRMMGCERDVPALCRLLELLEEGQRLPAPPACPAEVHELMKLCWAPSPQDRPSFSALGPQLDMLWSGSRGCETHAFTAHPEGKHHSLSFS

In patent publication US10947254B2, “Methods for treating ulcerative colitis using 3-((1R,3s,5S)-3-((7-((5-methyl-1H-pyrazol-3-yl)amino)-1,6-naphthyridin-5-yl)amino)-8-azabicyclo[3.2.1]octan-8-yl)propanenitrile” (priority 2015, dated 2021):

Target: JAK3 (Homo sapiens (Human), UniProt P52333)
Assay: Biochemical JAK assay (LanthaScreen), JAK3
Procedure: Assay 1: Biochemical JAK and Off-Target Kinase Assays
A panel of four LanthaScreen JAK biochemical assays (JAK1, 2, 3 and Tyk2) were carried in a common kinase reaction buffer (50 mM HEPES, pH 7.5, 0.01% Brij-35, 10 mM MgCl2, and 1 mM EGTA). Recombinant GST-tagged JAK enzymes and a GFP-tagged STAT1 peptide substrate were obtained from Life Technologies.
Serially diluted compounds were pre-incubated with each of the four JAK enzymes and the substrate in white 384-well microplates (Corning) at ambient temperature for 1 h. ATP was subsequently added to initiate the kinase reactions in 10 μL total volume, with 1% DMSO. […] The plates were allowed to incubate at ambient temperature for 1 h before being read on the EnVision reader (Perkin Elmer).
Results were expressed as pIC50 (negative logarithm of IC50) and subsequently converted to pKi (negative logarithm of dissociation constant, Ki) using the Cheng-Prusoff equation.

Structure (SMILES) | JAK 3 (pKi)
Cc1cc(Nc2cc3ncccc3c(N[C@@H]3C[C@H]4CC[C@@H](C3)N4C(=O)C3(C#N)CC3)n2)n[nH]1 [Example 2-8] | C (C represents a pKi value between 7 and 9 (Ki between 100 nM and 1 nM))
Cc1cc(Nc2cc3ncccc3c(N[C@@H]3C[C@H]4CCC[C@@H](C3)N4C(=O)C3(C#N)CC3)n2)n[nH]1 [Example 2-20] | C (C represents a pKi value between 7 and 9 (Ki between 100 nM and 1 nM))
